For one substance, activation of PLD1, half-maximal activation of PLD1 activity (headgroup release assay) and stimulation of PLD1 activity results are on record in US20030124108A1.

The assay has as its target purified PLD1 (isoform not distinguished in Example 4) (human). In words: cell-based or functional assay.

Regarding “human Rac1 with … at the amino terminus (from UniProt P63000 1-189)”, the activation of PLD1 at a maximally effective concentration (Rac1 5.3 M as printed) stood at 13 fold, the half-maximal activation of PLD1 activity (headgroup release assay) is 1 M and the stimulation of PLD1 activity was 13 fold.
